Key:
Assay type in all cases: toxicity, organism-based
Conditions in all cases: in vivo, read-out: Ratio TD50/ED50
[1] = Protection index, ratio of TD50 for neurotoxicity in ip dosed mouse to ED50 for ip dosed maximal electroshock induced seizure mouse model
[2] = Protection index, ratio of TD50 for neurotoxicity in ip dosed mouse to ED50 for ip dosed pentylenetetrazole induced seizure mouse model
[3] = Protection index, ratio of TD50 for neurotoxicity in ip dosed mouse to ED50 for ip dosed 6-Hz induced seizure mouse model at 32 mA
[4] = Protection index, ratio of TD50 for neurotoxicity in po dosed Sprague-Dawley rat model to ED50 for po dosed maximal electroshock induced seizure Sprague-Dawley rat model
[5] = Protection index, ratio of TD50 for neurotoxicity in po dosed Sprague-Dawley rat model to ED50 for po dosed pentylenetetrazole induced seizure Sprague-Dawley rat model

For NC(=O)N1c2ccccc2C=Cc2ccccc21 [CARBAMAZEPINE], which selectivity ratio [1] is on record?
The selectivity ratio was 5.81.

And the selectivity ratio [2]?
Its selectivity ratio is < 0.91.

And the selectivity ratio [3]?
The selectivity ratio was 0.95.

What about the selectivity ratio [4] of the same compound?
Its selectivity ratio is 68.

And the selectivity ratio [5]?
The selectivity ratio was < 1.46.
